Assays:
[1] = Biodegradability, OECD 306 test; details: OECD 306, 28 days
[2] = water/octanol, slow stirring
[3] = tested on: Artica Tonsa
[4] = tested on: Corophium Volulator

N-oleyl(pyrroildine-2-one)-4-carboxylic acid/morpholine distillation residue salt [OleylPyCOO-AmixM]
Degradation (biodegradability) [1]: 70%
log Pow [2]: 1.6
48 h NOEC ([3]; 48 h): <1.0 mg/L
48 h LC90 ([3]; 48 h, first figure of LC90/100): 3.0 mg/L
48 h LC100 ([3]; 48 h, second figure of LC90/100): 9.1 mg/L
LC50 ([3]; 48 hrs): 1.6 mg/L
LC5@10 days [4]: 693 mg/kg
